Results as given in ChEMBL document CHEMBL3769307, “Selective inhibitors of phosphodiesterases: therapeutic promise for neurodegenerative disorders” (Medchemcomm, 2015).

Protein sequences, listed by entry. Tags and fused reporters are not part of them. Lines headed by an entry give the natural chain unless they say otherwise; changes in a name come on top.
UniProt Q9Y233: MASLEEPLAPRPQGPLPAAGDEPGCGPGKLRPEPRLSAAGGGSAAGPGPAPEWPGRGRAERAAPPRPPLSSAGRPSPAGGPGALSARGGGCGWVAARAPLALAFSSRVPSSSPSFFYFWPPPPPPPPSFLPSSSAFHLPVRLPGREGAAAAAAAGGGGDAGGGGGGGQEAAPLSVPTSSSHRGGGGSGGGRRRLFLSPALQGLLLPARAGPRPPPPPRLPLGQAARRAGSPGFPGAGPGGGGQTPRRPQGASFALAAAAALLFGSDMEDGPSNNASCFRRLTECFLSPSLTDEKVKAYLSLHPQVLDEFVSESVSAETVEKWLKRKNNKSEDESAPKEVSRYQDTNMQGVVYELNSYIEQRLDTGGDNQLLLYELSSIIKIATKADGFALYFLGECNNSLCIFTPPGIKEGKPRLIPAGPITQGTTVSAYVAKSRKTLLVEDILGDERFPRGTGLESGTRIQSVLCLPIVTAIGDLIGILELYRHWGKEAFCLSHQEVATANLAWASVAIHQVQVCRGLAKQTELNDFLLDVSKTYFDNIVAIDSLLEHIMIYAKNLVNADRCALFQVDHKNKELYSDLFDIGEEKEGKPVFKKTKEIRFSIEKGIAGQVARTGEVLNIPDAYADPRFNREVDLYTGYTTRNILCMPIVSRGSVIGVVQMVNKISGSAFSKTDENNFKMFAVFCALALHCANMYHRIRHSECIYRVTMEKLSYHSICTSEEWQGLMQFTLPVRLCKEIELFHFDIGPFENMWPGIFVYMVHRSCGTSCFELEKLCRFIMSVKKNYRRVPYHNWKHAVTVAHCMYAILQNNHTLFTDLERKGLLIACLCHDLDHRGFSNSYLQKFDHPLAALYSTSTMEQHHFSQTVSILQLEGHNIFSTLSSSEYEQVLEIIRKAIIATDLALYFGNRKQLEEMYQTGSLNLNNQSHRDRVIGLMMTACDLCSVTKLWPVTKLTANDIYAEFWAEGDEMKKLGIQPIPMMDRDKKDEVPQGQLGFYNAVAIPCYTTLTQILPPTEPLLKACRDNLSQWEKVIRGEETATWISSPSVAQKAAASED

Biological target: cAMP and cAMP-inhibited cGMP 3',5'-cyclic phosphodiesterase 10A (Homo sapiens, UniProt Q9Y233)
Assay: Inhibition of recombinant full length human PDE10A by scintillation proximity assay in presence of cAMP

## COc1ccc(Cc2nccc3cc(OC)c(OC)cc23)cc1OC [PAPAVERINE]
  IC50: 92.3 nM
